# Results taken from patent US20260070899A1, “N-(2-(4-CYANOTHIAZOLIDIN-3-YL)-2-OXOETHYL)-QUINOLINE-4-CARBOXAMIDES” (AstraZeneca AB, priority 2022, published 2026).
# pIC50: −log10 of the molar value.
# Biological target: T1, human Fibroblast activation protein alpha (hFAP) (Homo sapiens, UniProt Q12884)
# T1 construct: Proteros, 38-760 (PR-0071); purchased Proteros PR-0071
# T1 sequence (Q12884 38-760): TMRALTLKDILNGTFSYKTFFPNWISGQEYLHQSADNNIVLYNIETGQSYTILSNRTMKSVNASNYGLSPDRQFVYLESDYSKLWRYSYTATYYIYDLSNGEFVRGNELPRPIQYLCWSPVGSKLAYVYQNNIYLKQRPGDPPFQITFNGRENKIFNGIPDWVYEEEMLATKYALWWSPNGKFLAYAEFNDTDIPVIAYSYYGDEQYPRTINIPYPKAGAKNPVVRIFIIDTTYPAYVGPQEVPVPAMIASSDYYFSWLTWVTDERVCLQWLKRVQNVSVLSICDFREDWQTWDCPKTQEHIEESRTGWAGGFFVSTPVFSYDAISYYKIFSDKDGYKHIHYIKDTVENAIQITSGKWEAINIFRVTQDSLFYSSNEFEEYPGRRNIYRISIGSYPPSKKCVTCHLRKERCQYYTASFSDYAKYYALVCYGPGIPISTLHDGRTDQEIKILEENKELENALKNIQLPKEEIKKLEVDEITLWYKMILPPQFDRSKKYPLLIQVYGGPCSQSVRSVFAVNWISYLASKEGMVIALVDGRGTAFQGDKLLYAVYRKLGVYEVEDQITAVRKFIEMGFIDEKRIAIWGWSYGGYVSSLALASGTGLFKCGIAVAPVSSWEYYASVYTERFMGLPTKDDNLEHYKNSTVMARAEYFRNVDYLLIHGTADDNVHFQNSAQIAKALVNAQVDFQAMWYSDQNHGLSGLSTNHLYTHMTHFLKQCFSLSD
# Assay: hFAP inhibition assay (tight binders)
# Type: biochemical
# Settings: Ala-Pro-AMC 20 μM, n = 1 or geometric mean (n = 2-5)
# Experimental: Data were analyzed in Genedata Screener®.
row,pIC50,Compound
1,9.89,"Cc1cc(C(C)c2ccc3nccc(C(=O)NCC(=O)N4CSC[C@H]4C#N)c3c2)no1 (mixture of isomers) [Example 46, N-(2-((R)-4-Cyanothiazolidin-3-yl)-2-oxoethyl)-6-((RS)-1-(5-methylisoxazol-3-yl)ethyl)quinoline-4-carboxamide]"
2,9.62,"N#C[C@@H]1CSCN1C(=O)CNC(=O)c1ccnc2ccc(COCC(F)F)cc12 [Example 36, (R)—N-(2-(4-Cyanothiazolidin-3-yl)-2-oxoethyl)-6-((2,2-difluoroethoxy)methyl)quinoline-4-carboxamide]"
3,9.17,"CCOC1(c2ccc3nccc(C(=O)NCC(=O)N4CSC[C@H]4C#N)c3c2)CC1 [Example 76, (R)—N-(2-(4-Cyanothiazolidin-3-yl)-2-oxoethyl)-6-(1-ethoxycyclopropyl)quinoline-4-carboxamide]"
4,10.43,"N#C[C@@H]1CSCN1C(=O)CNC(=O)c1ccnc2ccc(C3(C#N)CCCCC3)cc12 [Example 60, (R)-6-(1-Cyanocyclohexyl)-N-(2-(4-cyanothiazolidin-3-yl)-2-oxoethyl)quinoline-4-carboxamide]"
5,9.70,"N#C[C@@H]1CSCN1C(=O)CNC(=O)c1ccnc2ccc(COC3CC3)cc12 [Example 37, (R)—N-(2-(4-Cyanothiazolidin-3-yl)-2-oxoethyl)-6-(cyclopropoxy-methyl)quinoline-4-carboxamide]"
6,10.20,"Cc1cc(Cc2ccc3nccc(C(=O)NCC(=O)N4CSC[C@H]4C#N)c3c2)n(C)n1 [Example 40, (R)—N-(2-(4-Cyanothiazolidin-3-yl)-2-oxoethyl)-6-((1,3-dimethyl-1H-pyrazol-5-yl)methyl)quinoline-4-carboxamide]"
7,9.77,"N#C[C@@H]1CSCN1C(=O)CNC(=O)c1ccnc2ccc(Cn3cccn3)cc12 [Example 80, (R)-6-((1H-Pyrazol-1-yl)methyl)-N-(2-(4-cyanothiazolidin-3-yl)-2-oxoethyl)quinoline-4-carboxamide]"
8,9.55,"COC(C)(C)c1ccc2nccc(C(=O)NCC(=O)N3CSC[C@H]3C#N)c2c1 [Example 18, (R)—N-(2-(4-Cyanothiazolidin-3-yl)-2-oxoethyl)-6-(2-methoxypropan-2-yl)quinoline-4-carboxamide]"
9,10.15,"N#C[C@@H]1CSCN1C(=O)CNC(=O)c1ccnc2ccc(C3(C#N)CC3)cc12 [Example 70, (R)-6-(1-Cyanocyclopropyl)-N-(2-(4-cyanothiazolidin-3-yl)-2-oxoethyl)quinoline-4-carboxamide]"
10,10.39,"N#C[C@@H]1CSCN1C(=O)CNC(=O)c1ccnc2ccc([C@H]3CC[C@H](C#N)CC3)cc12 (single isomer, unassigned) [Example 54, 6-((1r,4R*)-4-Cyanocyclohexyl)-N-(2-((R)-4-cyanothiazolidin-3-yl)-2-oxoethyl)quinoline-4-carboxamide]"
11,9.96,"CC(c1ccc2nccc(C(=O)NCC(=O)N3CSC[C@H]3C#N)c2c1)c1ccc(Cl)cn1 (mixture of isomers) [Example 48, 6-((RS)-1-(5-Chloropyridin-2-yl)ethyl)-N-(2-((R)-4-cyanothiazolidin-3-yl)-2-oxoethyl)quinoline-4-carboxamide]"
12,9.40,"COCC(OC)c1ccc2nccc(C(=O)NCC(=O)N3CSC[C@H]3C#N)c2c1 (mixture of isomers) [Example 30, N-(2-((R)-4-Cyanothiazolidin-3-yl)-2-oxoethyl)-6-((RS)-1,2-dimethoxyethyl)quinoline-4-carboxamide]"
13,9.82,"N#C[C@@H]1CSCN1C(=O)CNC(=O)c1ccnc2ccc(C3(c4ccc(Cl)cn4)CC3)cc12 [Example 47, (R)-6-(1-(5-Chloropyridin-2-yl)cyclopropyl)-N-(2-(4-cyanothiazolidin-3-yl)-2-oxoethyl)quinoline-4-carboxamide]"
14,10.05,"CC(c1ccc2nccc(C(=O)NCC(=O)N3CSC[C@H]3C#N)c2c1)c1ncccc1F (mixture of isomers) [Example 12, N-(2-((R)-4-Cyanothiazolidin-3-yl)-2-oxoethyl)-6-((RS)-1-(3-fluoropyridin-2-yl)ethyl)quinoline-4-carboxamide]"
15,9.68,"N#C[C@@H]1CSCN1C(=O)CNC(=O)c1ccnc2ccc(C3CCCCO3)cc12 (mixture of isomers) [Example 32, N-(2-((R)-4-Cyanothiazolidin-3-yl)-2-oxoethyl)-6-((RS)-tetrahydro-2H-pyran-2-yl)quinoline-4-carboxamide]"
16,9.59,"CC(C)(O)c1ccc2nccc(C(=O)NCC(=O)N3CSC[C@H]3C#N)c2c1 [Example 16, (R)—N-(2-(4-Cyanothiazolidin-3-yl)-2-oxoethyl)-6-(2-hydroxypropan-2-yl)quinoline-4-carboxamide]"
17,10.48,"CO[C@H]1CC[C@H](c2ccc3nccc(C(=O)NCC(=O)N4CSC[C@H]4C#N)c3c2)CC1 (single isomer, unassigned) [Example 78, N-(2-((R)-4-Cyanothiazolidin-3-yl)-2-oxoethyl)-6-((1r,4R*)-4-methoxycyclohexyl)quinoline-4-carboxamide]"
18,10.11,"CC(c1ccnc(C(F)(F)F)c1)c1ccc2nccc(C(=O)NCC(=O)N3CSC[C@H]3C#N)c2c1 (mixture of isomers) [Example 52, N-(2-((R)-4-Cyanothiazolidin-3-yl)-2-oxoethyl)-6-((RS)-1-(2-(trifluoromethyl)pyridin-4-yl)ethyl)quinoline-4-carboxamide]"
19,10.46,"N#C[C@@H]1CSCN1C(=O)CNC(=O)c1ccnc2ccc([C@H]3CC[C@H](C#N)CC3)cc12 (single isomer, unassigned) [Example 55, 6-((1r,4R*)-4-Cyanocyclohexyl)-N-(2-((R)-4-cyanothiazolidin-3-yl)-2-oxoethyl)quinoline-4-carboxamide]"
20,9.96,"Cc1nn(C)nc1Cc1ccc2nccc(C(=O)NCC(=O)N3CSC[C@H]3C#N)c2c1 [Example 19, (R)—N-(2-(4-Cyanothiazolidin-3-yl)-2-oxoethyl)-6-((2,5-dimethyl-2H-1,2,3-triazol-4-yl)methyl)quinoline-4-carboxamide]"
21,10.21,"N#C[C@@H]1CSCN1C(=O)CNC(=O)c1ccnc2ccc(C3(F)CCC3)cc12 [Example 75, (R)—N-(2-(4-Cyanothiazolidin-3-yl)-2-oxoethyl)-6-(1-fluoro-cyclobutyl)quinoline-4-carboxamide]"
22,10.15,"CC(F)(F)COc1ccc2nccc(C(=O)NCC(=O)N3CSC[C@H]3C#N)c2c1 [Example 11, (R)—N-(2-(4-Cyanothiazolidin-3-yl)-2-oxoethyl)-6-(2,2-difluoropropoxy)quinoline-4-carboxamide]"
23,9.96,"Cn1ncc(Cc2ccc3nccc(C(=O)NCC(=O)N4CSC[C@H]4C#N)c3c2)n1 [Example 41, (R)—N-(2-(4-Cyanothiazolidin-3-yl)-2-oxoethyl)-6-((2-methyl-2H-1,2,3-triazol-4-yl)methyl)quinoline-4-carboxamide]"
24,9.60,"CC1(C)CC(Oc2ccc3nccc(C(=O)NCC(=O)N4CSC[C@H]4C#N)c3c2)CCO1 (mixture of isomers) [Example 9, N-(2-((R)-4-Cyanothiazolidin-3-yl)-2-oxoethyl)-6-(((RS)-2,2-dimethyltetrahydro-2H-pyran-4-yl)oxy)quinoline-4-carboxamide]"
25,10.31,"N#C[C@@H]1CSCN1C(=O)CNC(=O)c1ccnc2ccc(C3(F)CCOCC3)cc12 [Example 64, (R)—N-(2-(4-Cyanothiazolidin-3-yl)-2-oxoethyl)-6-(4-fluorotetrahydro-2H-pyran-4-yl)quinoline-4-carboxamide]"
26,10.05,"N#C[C@@H]1CSCN1C(=O)CNC(=O)c1ccnc2ccc(OC3CCOCC3)cc12 [Example 6, (R)—N-(2-(4-Cyanothiazolidin-3-yl)-2-oxoethyl)-6-((tetrahydro-2H-pyran-4-yl)oxy)quinoline-4-carboxamide]"
27,10.02,"N#C[C@@H]1CSCN1C(=O)CNC(=O)c1ccnc2ccc(C3CCOCC3)cc12 [Example 20, (R)—N-(2-(4-Cyanothiazolidin-3-yl)-2-oxoethyl)-6-(tetrahydro-2H-pyran-4-yl)quinoline-4-carboxamide]"
28,10.03,"CO[C@H]1C[C@](F)(c2ccc3nccc(C(=O)NCC(=O)N4CSC[C@H]4C#N)c3c2)C1 (single isomer, unassigned) [Example 62, N-(2-((R)-4-Cyanothiazolidin-3-yl)-2-oxoethyl)-6-((1r,3R*)-1-fluoro-3-methoxycyclobutyl)quinoline-4-carboxamide]"
29,9.89,"Cc1cc(C(C)c2ccc3nccc(C(=O)NCC(=O)N4CSC[C@H]4C#N)c3c2)on1 (mixture of isomers) [Example 49, N-(2-((R)-4-Cyanothiazolidin-3-yl)-2-oxoethyl)-6-((RS)-1-(3-methylisoxazol-5-yl)ethyl)quinoline-4-carboxamide]"
30,9.92,"N#C[C@@H]1CSCN1C(=O)CNC(=O)c1ccnc2ccc(C3(O)CCOCC3)cc12 [Example 15, (R)—N-(2-(4-Cyanothiazolidin-3-yl)-2-oxoethyl)-6-(4-hydroxy-tetrahydro-2H-pyran-4-yl)quinoline-4-carboxamide]"
